The values below are quoted from earlier work in publication PMC4584289.

The target of this data set is STRA6 (Homo sapiens) (UniProt Q9BX79).

For the substance RBP (from UniProt P02753), the Kd is 59 nM.

The term Kd denotes the free concentration of one partner at which half of the binding sites on the other are occupied at equilibrium, for simple one-to-one binding.
